Measured values taken from paper PMC9649962, “Early diagnosis of bladder cancer by photoacoustic imaging of tumor-targeted gold nanorods” (Photoacoustics, 2022).

Key:
MB49-Luc cells = assay: Cell adhesion to HSA conjugate-coated plates, MB49-Luc; type: cell-based, murine; conditions: 30 µg/ml in images, 1–2 h, 37 °C, crystal violet, n = 4
Description: (§1) 96-well PVC microtiter plates were coated with Iso4-HSA or GNRs@Chit-Iso4 in 50 mM sodium phosphate, pH 7.3, containing 150 mM sodium chloride, (overnight incubation at 4 °C). The plates were washed and blocked with 2% BSA in DMEM or RPMI-1640 (200 μl/well, 1 h). MB49-Luc and 5637 cells were detached with DPBS-E, washed twice with DPBS, and suspended in DMEM or RPMI-1640 containing 0.1% BSA (binding buffer-3), and added to the coated-plates (1.5 ×10^5 cells/well, 100 μl). After 1–2 h of incubation at 37 °C, 5% CO2, the plates were washed with binding buffer-3. Adherent cells were fixed and stained with 0.5% crystal violet in 20% methanol. After washing with water, the dye was extracted from cells using a 10% acetic acid solution (140 μl/well) and the absorbance at 570 nm was measured using a microplate reader. The effect of urine on the pro-adhesive properties of GNRs@Chit-Iso4 was investigated as described above, except that the cells were seeded in binding buffer-3 or binding buffer-1 and various amounts of human urine (obtained from a healthy volunteer).

5637 cells = assay: Cell adhesion to HSA conjugate-coated plates, 5637; type: cell-based, human; conditions: 30 µg/ml in images, 1–2 h, 37 °C, crystal violet, n = 4
Description: as §1

For “*HSA: HSA activated with sulfo-SMCC and quenched with β-mercaptoethanol instead of Iso4”, the cell adhesion (MB49-Luc cells) was “but not the activated HSA lacking the peptide (*HSA), promoted and supported cell adhesion” and the cell adhesion (5637 cells) was “but not the activated HSA lacking the peptide (*HSA), promoted and supported cell adhesion”.
